Experimental data: US6555692B1, “Preparation and use of bifunctional molecules having DNA sequence binding specificity” (California Institute of Technology, priority 1996, dated 2003)

Test system: 5′-TGTTA-3′
Assay: Quantitative DNase I footprint titration, equilibrium association constant

CN(C)CCCNC(=O)CCNC(=O)c1cc(NC(=O)c2cc(NC(=O)c3cc(NC(=O)CCCNC(=O)c4cc(NC(=O)c5cc(NC(=O)c6nccn6C)cn5C)cn4C)cn3C)cn2C)cn1C [ImPyPy-γ-PyPyPy-β-Dp]
apparent first order association constant Ka (5′-TGTTA-3′ match site): 3e+08 M⁻¹
specificity, match site relative to single base pair mismatch site (5′-TGTTA-3′ match vs 5′-TGACA-3′ mismatch): 60 fold
